Results: US20040137582A1, “Methods for manufacturing polysaccharide derivatives” (priority 2002, published 2004)

System: human skin fibroblasts
Experiment: Cell proliferation inhibition index (CPII) assay: direct contact assay
Conditions: for CPII: solutions, 72 h

Substance: Dextran
- relative inhibition of cell proliferation (depending on concentration): 18-35%
- CPII (10-20 mg/mL): ca. 18%
- CPII (higher concentrations): ca. 35%
